From PubChem BioAssay AID720509 (The Scripps Research Institute Molecular Screening Center, 2013)
Only a part is listed here, and it is no random draw. Active and inactive are the calls of the source.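 How the source made its calls: active means inhibition above a per-campaign cutoff: mean of compounds within control limits plus 3 SD (cut at about 15% in these data); inactive means the rest.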

Protein sequences, listed by entry. Tags and fused reporters are not part of them. Lines headed by an entry give the natural chain unless they say otherwise; changes in a name come on top.
UniProt P02675: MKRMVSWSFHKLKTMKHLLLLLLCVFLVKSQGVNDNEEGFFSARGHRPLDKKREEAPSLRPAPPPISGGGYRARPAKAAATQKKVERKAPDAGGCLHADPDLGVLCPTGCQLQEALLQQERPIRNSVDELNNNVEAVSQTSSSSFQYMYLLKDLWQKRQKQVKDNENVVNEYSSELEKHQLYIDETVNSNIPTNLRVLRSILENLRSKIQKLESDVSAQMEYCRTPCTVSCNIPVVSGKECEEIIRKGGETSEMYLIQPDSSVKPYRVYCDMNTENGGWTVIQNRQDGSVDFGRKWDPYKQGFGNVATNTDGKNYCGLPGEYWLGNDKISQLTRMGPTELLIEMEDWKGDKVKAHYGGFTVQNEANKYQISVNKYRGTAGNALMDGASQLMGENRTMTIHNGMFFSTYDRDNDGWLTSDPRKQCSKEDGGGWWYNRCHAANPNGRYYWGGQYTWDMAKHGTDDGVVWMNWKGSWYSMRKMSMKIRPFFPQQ

Molecular target: Fibrinogen beta chain (Homo sapiens) (UniProt P02675)
Test: small molecules displacing Tn6 from DD(E) complex – biochemical, fluorescence polarization, human fibrin, Tn6 probe, primary screen (AID 720509);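 further: 0% = median of all compound wells on the plate and 100% = blocking peptide control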
Settings: Fibrin DD(E) TRITC-Tn6 fluorescence polarization displacement; at 8.3 µM; stronger effect = higher value

Compound | inhibition
N#CCCN(C(=O)COC(=O)C(O)(c1ccccc1)c1ccccc1)c1ccc(F)cc1 | inactive: -2.66%
O=P(Nc1nccs1)(Oc1ccccc1)Oc1ccccc1 | inactive: 3.55%
CCOP1(=S)c2c(C)nn(CCC#N)c2N=C(c2ccccc2F)N1C (stereo unspecified) | inactive: 8.29%
Nc1ccccc1[As](=O)(O)c1ccccc1 | inactive: 4.62%
O=C(O)COc1ccc([As](=O)(O)O)cc1[N+](=O)[O-] | inactive: -3.59%
CCCOP(=S)(Nc1nc(N)cc(=O)[nH]1)OCCC | inactive: 2.53%
Cc1ccc(NCCc2c([N+](=O)[O-])cc([N+](=O)[O-])cc2[N+](=O)[O-])cc1 | inactive: 6.89%
Nc1cccc2c([As](=O)(O)O)cccc12 | active: 26.9%
CCOP(=O)(Nc1cccc2ccccc12)OCC | inactive: 2.42%
COc1cc(C2NCCC3(OCCO3)C2(C)C)cc(OC)c1OC (stereo unspecified) | inactive: 3.81%
CS(=O)(=O)c1ccc(Cl)c(NC(=O)COC(=O)C(O)(c2ccccc2)c2ccccc2)c1 | inactive: -5.57%
O=[As](O)(O)c1cccnc1 | inactive: -3.52%
COc1cc(C(=O)NCC2(N3CCOCC3)CCCCC2)cc(Cl)c1OC(C)C | inactive: -7.37%
O=C(OC1CN2CCC1CC2)c1ccc(Cl)cc1 (stereo unspecified) | inactive: 4.08%
Cc1cccc(OCC(=O)OC2CN3CCC2CC3)c1 (stereo unspecified) | inactive: -5.47%
O=[As](O)(c1cccc(O)c1)c1cccc(O)c1 | inactive: -8.86%
COc1ccc(N/C(=N/P(=O)(N2CCOCC2)N2CCOCC2)N2CCOCC2)cc1 | inactive: -1.04%
O=[N+]([O-])c1cc(Oc2ccc([N+](=O)[O-])cc2C(F)(F)F)cc([N+](=O)[O-])c1 | inactive: -0.79%
Cc1cc(=O)[nH]c(N[N+](=O)[O-])n1 | inactive: -8.85%

Compound | inhibition
O=C(OC1CN2CCC1CC2)C12CC3CC(CC(C3)C1)C2 (stereo unspecified) | inactive: -9.52%
Cc1c2c(nc3ccccc13)SC(C(Cl)Cl)C2 (stereo unspecified) | inactive: 10.6%
COc1cc(I)ccc1[As](=O)(O)O | inactive: -0.25%
COc1ccc2nc(NP(=O)(c3ccccc3)c3ccccc3)sc2c1 | inactive: 6.77%
O=P1(N(CCCl)CCCl)OCCCN1CCCl (stereo unspecified) | inactive: -11.1%
O=P1(N(CCCl)CCCl)Nc2ccccc2N1 | inactive: -0.55%
COC(=O)C1(C)COP(=O)(N2CCCCCC2)OC1 (stereo unspecified) | inactive: 1.32%
CC(C)c1ccc(OP(=O)(Nc2ccccn2)Oc2ccccc2F)cc1 (stereo unspecified) | inactive: -4.75%
ClCCSc1nnc(-c2cccnc2)o1 | inactive: -4.01%
CC(C)NC(=O)NP(=O)(Oc1ccccc1)Oc1ccccc1 | inactive: 5.69%
CCN(CC)C(=S)SC(NC=O)C(Cl)(Cl)Cl (stereo unspecified) | inactive: -0.33%
O=C(OC1CN2CCC1CC2)c1cccc2[nH]cnc12 (stereo unspecified) | inactive: -4.75%
O=[N+]([O-])c1ccc(-c2cc([N+](=O)[O-])c(O)c([N+](=O)[O-])c2)cc1 | inactive: -9.63%
COc1cc(C(=O)NCC2(N3CCOCC3)CCCCC2)ccc1OCC(C)C | inactive: 2.17%
O=[As](O)(c1ccc(O)cc1)c1ccccc1O | inactive: -0.88%
C[As](=O)(O)c1cccc(C(=O)O)c1 | inactive: 10.3%
Cc1ccc2nc3c(c(C)c2c1)CC(C(Cl)Cl)S3 (stereo unspecified) | inactive: 2.09%
[N-]=[N+]=NC1CCCCC1NC(=O)c1cc([N+](=O)[O-])cc([N+](=O)[O-])c1 (stereo unspecified) | inactive: 6.93%
Cc1ccc(OP(=O)(Nc2ccc([N+](=O)[O-])cn2)Oc2ccc(C)cc2)cc1 | inactive: 2.05%

Compound | inhibition
CCOC(=O)Nc1cccc([As](=O)(O)O)c1 | inactive: -0.45%
O=[N+]([O-])c1ccc(Nc2ccc(Oc3ccc([N+](=O)[O-])cc3[N+](=O)[O-])cc2)c([N+](=O)[O-])c1 | inactive: 4.27%
O=P(Nc1ccccn1)(c1cccc2ccccc12)c1cccc2ccccc12 | inactive: 4.49%
Cc1cc(SC(NC=O)C(Cl)(Cl)Cl)ncn1 (stereo unspecified) | inactive: 1.99%
CC1CCNP(=O)(N(CCCl)CCCl)O1 (stereo unspecified) | inactive: -5.94%
CCOC(=O)Nc1ccc([As](=O)(O)O)c(O)c1 | inactive: -0.56%
O=C(O)C(O)c1ccc(N(CCCl)CCCl)cc1 (stereo unspecified) | inactive: -5.77%
Cc1cc(SC(NC(=O)c2ccccc2)C(Cl)(Cl)Cl)nc(C(C)C)n1 (stereo unspecified) | inactive: -6.4%
CCCCOc1ccc(C(=O)NCC2(N3CCCCC3)CCCCC2)cc1OC | inactive: 8.54%
COP(=O)(OC)N1CC1c1ccccc1 (stereo unspecified) | inactive: 4.99%
CCOC(=O)c1ccc(NC(=O)C(C)(CCl)SC)cc1 (stereo unspecified) | inactive: -0.93%
O=C(OC1CN2CCC1CC2)c1cccc([N+](=O)[O-])c1 (stereo unspecified) | inactive: -6.85%
CCC(C)N(CC(C)C)C(=S)SC(NC(C)=O)C(Cl)(Cl)Cl (stereo unspecified) | inactive: 5.79%
COC(=O)C1(C)COP(=O)(N2CCCC2)OC1 (stereo unspecified) | inactive: 3.73%
COP1(=S)c2c(C)nn(CCC#N)c2N=C(c2ccc(F)cc2)N1C (stereo unspecified) | inactive: 2.47%
O=C(Nc1ccncc1[N+](=O)[O-])c1ccc([N+](=O)[O-])cc1[N+](=O)[O-] | inactive: 1.83%
O=C(COc1ccccc1)OC1CN2CCC1CC2 (stereo unspecified) | inactive: 2.77%
O=C(O)C(=O)c1ccc(N(CCCl)CCCl)cc1 | inactive: -2.4%
